The source of these data is ChEMBL document CHEMBL1149292, “A rational utilization of high-throughput screening affords selective, orally bioavailable 1-benzyl-3-carboxyazetidine sphingosine-1-phosphate-1 receptor agonists” (J Med Chem, 2004).

Protein sequences, listed by entry. Tags and fused reporters are not part of them.
UniProt P21453, whole entry: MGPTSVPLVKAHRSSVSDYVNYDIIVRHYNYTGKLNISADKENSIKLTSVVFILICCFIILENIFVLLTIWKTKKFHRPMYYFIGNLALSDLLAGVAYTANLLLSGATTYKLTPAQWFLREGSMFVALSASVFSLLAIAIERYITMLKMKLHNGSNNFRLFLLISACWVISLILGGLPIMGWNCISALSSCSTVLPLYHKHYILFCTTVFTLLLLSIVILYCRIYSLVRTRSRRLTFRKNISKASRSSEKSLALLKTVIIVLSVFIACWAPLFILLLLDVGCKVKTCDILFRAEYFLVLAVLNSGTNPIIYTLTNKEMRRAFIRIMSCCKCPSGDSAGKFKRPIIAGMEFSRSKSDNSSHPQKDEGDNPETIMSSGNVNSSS

The target in this experiment is Sphingosine 1-phosphate receptor 1 (Homo sapiens, UniProt P21453). Briefly: Displacement of [33P]sphingosine 1 phosphate from human S1P1 receptor expressed in CHO cells. The class given is cell-based.

As for `CCCCCCCCc1ccc(CCC(N)(CO)CO)cc1` [FINGOLIMOD], the concentration for half-maximal inhibition (IC50) is listed as 840 nM (antagonist).

By IC50 is commonly meant the concentration that gives 50% inhibition. Read a low IC50 as inhibition by little substance.
